# Apparent affinities of Ab-95 variants for a coronavirus HR2 peptide

From the AlphaSeq antibody data of Engelhart et al. 2022 (doi:10.1038/s41597-022-01779-4), copy in the FLAb collection.

The target is the same throughout: PDVDLGDISGINAS, from the HR2 region of SARS-CoV-2 spike.

Parent scFv Ab-95: VH joined to VL by three GGGGS repeats. Changes lie in the light chain CDRs alone.
VH: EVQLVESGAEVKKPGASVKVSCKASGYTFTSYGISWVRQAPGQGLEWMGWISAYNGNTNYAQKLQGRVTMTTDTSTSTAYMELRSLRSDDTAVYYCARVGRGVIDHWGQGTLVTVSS
VL: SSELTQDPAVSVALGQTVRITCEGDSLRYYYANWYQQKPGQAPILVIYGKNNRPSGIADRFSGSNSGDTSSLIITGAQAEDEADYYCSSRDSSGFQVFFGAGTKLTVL

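AAYL52 was designed without a model: most single CDR substitutions and a random sample of double and triple ones. Affinity was read by AlphaSeq, a pooled yeast mating assay with surface-displayed partners. The frequency of each diploid, read from paired DNA barcodes, reflects how well the two displayed proteins bind. Scores were corrected for input abundance and mapped to Kd with protein pairs of known affinity run in the same pool. Each pool was mated in three replicate cultures.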

Substitutions are numbered in sequence along the VL above, starting at 1 (not Kabat).
This list gathers variants with a substitution at Y29 (VL, numbered from residue 1).
Kd is apparent (estimated from mating counts) and averaged on the log scale over replicates with a signal. Smaller is tighter.
"nd" means that the variant was in the library but no mating with the target was seen in any replicate; the authors take this as a sign of poor binding, and no number exists.
Three control strains display no target. For library AAYL52, 28% of the pairings with them gave a signal, with a median of 8.2 µM and one signal in twenty below 800 nM, so weak values seen in few replicates may be background. For each scFv, signals with the empty controls are counted beside the result.

* Y29Q/S88R/S92K -> nd (0 of 3 replicates; controls 0 of 9)
* Y29H/S55V/S92N -> 98 nM (3 of 3 replicates; controls 3 of 9)
* Y29C/Y30D/S89C -> 25 nM (3 of 3 replicates; controls 2 of 9)
* Y29S/N51W/Q96A -> 2.6 µM (3 of 3 replicates; controls 4 of 9)
* R28L/Y29G/Q96C -> 680 nM (3 of 3 replicates; controls 4 of 9)
* S26Y/Y29K/V97P -> 3.8 µM (2 of 3 replicates; controls 2 of 9)
* Y29T/S55L/S88I -> nd (0 of 3 replicates; controls 3 of 9)
* G24M/Y29D/S93H -> nd (0 of 3 replicates; controls 1 of 9)
* Y29E/Y30V/N33L -> 170 nM (3 of 3 replicates; controls 5 of 9)
* L27Q/Y29V/V97D -> 12 µM (3 of 3 replicates; controls 5 of 9)
* Y29L/G49F -> 19 µM (2 of 3 replicates; controls 3 of 9)
* Y29F/A32N/R90A -> 4.6 µM (2 of 3 replicates; controls 4 of 9)
* L27I/Y29F/G94R -> 46 µM (1 of 3 replicates; controls 2 of 9)
* Y29D/S89K/S93V -> 510 nM (3 of 3 replicates; controls 1 of 9)
* G24N/Y29R/S88I -> 7.1 µM (1 of 3 replicates; controls 1 of 9)
* S26P/Y29K/F98H -> 1.7 µM (3 of 3 replicates; controls 1 of 9)
* Y29F/G49N/S93Q -> 1.4 µM (3 of 3 replicates; controls 3 of 9)
* Y29A/N51P/G94Q -> 2.0 µM (2 of 3 replicates; controls 2 of 9)
* Y29L/K50I -> 2.3 µM (1 of 3 replicates; controls 1 of 9)
* Y29D/N51L/R53G -> 60 µM (2 of 3 replicates; controls 3 of 9)
* Y29T/S89P/G94S -> 39 nM (3 of 3 replicates; controls 5 of 9)
* Y29C/G49C/S55F -> 4.1 µM (2 of 3 replicates; controls 3 of 9)
* S26R/Y29W/S89R -> 9.9 µM (1 of 3 replicates; controls 4 of 9)
* G24W/Y29S/Q96F -> 15 µM (1 of 3 replicates; controls 4 of 9)
* Y29V/Y31K/S88R -> 710 nM (2 of 3 replicates; controls 4 of 9)
* R28A/Y29E/V97K -> 5.0 µM (1 of 3 replicates; controls 1 of 9)
* Y29S/A32F/N51A -> 480 nM (1 of 3 replicates; controls 3 of 9)
* R28I/Y29P -> 230 nM (3 of 3 replicates; controls 2 of 9)
* R28A/Y29I/S55F -> nd (0 of 3 replicates; controls 2 of 9)
* Y29G/R53T -> 100 nM (3 of 3 replicates; controls 2 of 9)
* Y29T/Y30P/S93F -> 330 nM (3 of 3 replicates; controls 2 of 9)
* Y29G/G49A/S92E -> 76 nM (3 of 3 replicates; controls 1 of 9)
* Y29M/A32R/S88T -> 730 nM (1 of 3 replicates; controls 5 of 9)
* Y29P/N51V/S93T -> 2.4 µM (1 of 3 replicates; controls 2 of 9)
* Y29F/D91K/F98D -> nd (0 of 3 replicates; controls 2 of 9)
* Y29Q/N33P/K50V -> 2.1 µM (1 of 3 replicates; controls 4 of 9)
* L27K/Y29M/S92R -> 17 µM (2 of 3 replicates; controls 2 of 9)
* G24Y/Y29E/P54Q -> 720 nM (2 of 3 replicates; controls 1 of 9)
* D25I/Y29V/N52G -> 2.3 µM (3 of 3 replicates; controls 5 of 9)
* Y29V/A32T/S92V -> 1.8 µM (2 of 3 replicates; controls 3 of 9)
* D25P/Y29C/P54Q -> 190 nM (3 of 3 replicates; controls 4 of 9)
* Y29H/N52P/S92Y -> 5.6 µM (3 of 3 replicates; controls 5 of 9)
* Y29S/S93T/F98R -> 1.0 µM (3 of 3 replicates; controls 2 of 9)
* S26Y/Y29D/N33P -> 4.7 µM (3 of 3 replicates; controls 4 of 9)
* Y29R/N33T/S92M -> 13 µM (3 of 3 replicates; controls 5 of 9)
* R28P/Y29G/F98A -> 670 nM (3 of 3 replicates; controls 3 of 9)
* Y29D/G49D/S55A -> 530 nM (3 of 3 replicates; controls 4 of 9)
* Y29F/S88V/S93P -> 2.6 µM (2 of 3 replicates; controls 1 of 9)

For reference, 6 entries of the list once more:

changes	Kd (apparent)	detected	signal with controls
Y29D/S89K/S93V	510 nM	3/3	1/9
Y29T/Y30P/S93F	330 nM	3/3	2/9
Y29F/A32N/R90A	4.6 µM	2/3	4/9
G24Y/Y29E/P54Q	720 nM	2/3	1/9
Y29D/G49D/S55A	530 nM	3/3	4/9
Y29G/R53T	100 nM	3/3	2/9

Parent in this assay: reference entry 200 nM, copy in this library 180 nM.